Experimental findings from BindingDB's records for 8632410 are described below.

Amino acid sequences for entries named in this document (tags omitted). A change or cut given only in a name is not applied to a line headed by its entry.
UniProt P41143, whole entry, looked up: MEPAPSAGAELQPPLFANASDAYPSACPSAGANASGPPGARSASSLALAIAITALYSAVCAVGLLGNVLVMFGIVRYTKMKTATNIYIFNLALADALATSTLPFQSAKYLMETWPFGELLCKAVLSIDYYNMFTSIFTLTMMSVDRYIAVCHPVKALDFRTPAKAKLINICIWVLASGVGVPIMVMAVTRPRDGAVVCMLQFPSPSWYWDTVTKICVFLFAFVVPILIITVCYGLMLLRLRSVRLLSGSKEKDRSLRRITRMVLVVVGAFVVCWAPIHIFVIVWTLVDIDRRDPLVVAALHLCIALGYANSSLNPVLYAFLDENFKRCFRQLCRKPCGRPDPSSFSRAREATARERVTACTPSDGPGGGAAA
UniProt P32239: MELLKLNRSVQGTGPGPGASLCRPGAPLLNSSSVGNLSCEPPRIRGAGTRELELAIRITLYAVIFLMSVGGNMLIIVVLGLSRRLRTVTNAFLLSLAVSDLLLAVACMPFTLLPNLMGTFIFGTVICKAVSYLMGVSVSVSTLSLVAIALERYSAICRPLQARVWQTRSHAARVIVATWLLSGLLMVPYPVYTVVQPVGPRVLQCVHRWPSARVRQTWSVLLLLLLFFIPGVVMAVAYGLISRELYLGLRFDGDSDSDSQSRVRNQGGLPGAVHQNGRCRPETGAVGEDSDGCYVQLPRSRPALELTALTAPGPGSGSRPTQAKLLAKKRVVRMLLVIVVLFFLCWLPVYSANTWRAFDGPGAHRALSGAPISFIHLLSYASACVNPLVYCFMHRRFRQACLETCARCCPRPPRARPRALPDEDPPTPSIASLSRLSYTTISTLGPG

Test [1] concerns the target T1, Delta-type opioid receptor (Homo sapiens, UniProt P41143). In words: Binding affinity against Opioid receptor delta 1 using [3H]DADLE as radioligand in guinea pig brain.
Test [2] deals with Gastrin/cholecystokinin type B receptor (Homo sapiens, UniProt P32239). Briefly: Binding affinity against Cholecystokinin type B receptor using [3H](MeNLE28,31)-CCK-8 as radioligand in guinea pig cerebral cortex.
Test [3] deals with T1, Delta-type opioid receptor. Briefly: Binding affinity against delta Opioid receptor delta 1 using [3H]DADLE as radioligand in guinea pig brain.

One may read the Ki as a measure of affinity in units of concentration, obtained from inhibition or displacement. Read a high Ki as weaker binding. As to `CN1c2ccccc2C(c2ccccc2)=NCC1CCNC(=O)c1cccs1` (configuration not stated), the Ki was 0.105 µM in test [1] and 13 µM in test [2].
Consider `CN1c2ccc(Cl)cc2C(c2ccccc2)=NCC1CCNC(=O)c1cc2ccccc2[nH]1` (configuration not stated), for which the Ki in test [3] is > 1 µM.
On to `CN1c2ccccc2C(c2ccccc2F)=NCC1CNC(=O)c1ccsc1` (configuration not stated), for which the figures for the inhibition constant (Ki) in test [1] and in test [2] were 0.153 µM and > 100 µM, respectively.
With `CN1c2ccc(Cl)cc2C(c2ccccc2)=NCC1CCNC(=O)c1ccccc1F` (configuration not stated), the inhibition constant Ki in test [1] was > 1 µM.
In test [1], `CN1c2ccccc2C(c2ccccc2)=NCC1CCNC(=O)c1ccc(F)cc1` (configuration not stated) returned an inhibition constant (Ki) of 0.275 µM.
Still for that read-out and setting: to `CN1c2ccc(Cl)cc2C(c2ccccc2)=NCC1CCNC(=O)c1ccc(F)cc1` (configuration not stated) belongs 1 µM.
With `CN1c2ccc(Cl)cc2C(c2ccccc2)=NCC1CCNC(=O)c1ccc(Cl)cc1` (configuration not stated), the Ki in test [3] was > 1 µM.
In the case of `CN1c2ccc(Cl)cc2C(c2ccccc2)=NCC1CCNC(=O)c1cccs1` (configuration not stated), the inhibition constant (Ki) in test [1] is > 1 µM; in test [2], 17 µM.
For `CN1c2ccccc2C(c2ccccc2)=NCC1CCNC(=O)c1ccccc1F` (configuration not stated), the Ki in test [1] was > 0.3 µM.
